# Data from PubChem BioAssay AID2097 (Broad Institute, 2009).
# Chains of the proteins cited; added tags and fusions are not shown. Lines headed by an entry give the natural chain unless they say otherwise; changes in a name come on top.
# UniProt P49841: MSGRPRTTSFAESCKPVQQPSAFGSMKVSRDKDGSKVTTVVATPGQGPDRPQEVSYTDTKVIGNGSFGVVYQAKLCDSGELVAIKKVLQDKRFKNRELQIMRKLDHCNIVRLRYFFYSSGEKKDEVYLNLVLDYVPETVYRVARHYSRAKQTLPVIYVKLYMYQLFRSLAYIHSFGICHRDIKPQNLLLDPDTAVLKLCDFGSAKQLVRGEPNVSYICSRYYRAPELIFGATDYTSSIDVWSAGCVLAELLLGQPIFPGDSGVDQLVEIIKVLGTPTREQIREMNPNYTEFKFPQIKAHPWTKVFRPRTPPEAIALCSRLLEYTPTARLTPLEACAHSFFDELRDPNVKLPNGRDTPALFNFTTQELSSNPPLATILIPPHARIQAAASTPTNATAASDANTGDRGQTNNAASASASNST
# The entries are a selection whose mix differs from that of the whole data set. Calls of active or inactive are those of the source.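 Rule for the calls: active = more than half of replicate wells score below -50%, meaning over 50% inhibition versus plate controls; inconclusive = some replicates but at most half score below -50%; inactive = no replicate scores below -50%.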
# Molecular target: Glycogen synthase kinase-3 beta (Homo sapiens) (UniProt P49841)
# Assay: blockers of GSK3B enzyme activity – biochemical, cell-free homogeneous, HTS, primary screen (AID 2097);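 note: 0% = median DMSO wells and -100% = median GW8510 positive control wells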
# Details: GST-GSK3beta kinase, ADP-Glo luminescence, 60 min; at 10 µM; stronger effect = lower value
row,Structure (SMILES),activity score (negative = inhibition)
1,O=[N+]([O-])c1cccc(NC2=NCC(CBr)S2)c1 (configuration not stated),inactive: 0.781%
2,O=C(O)CNc1ccc([As](=O)(O)O)cc1,inactive: 2.49%
3,CC(C)(C)C(=O)NC(Sc1ccncn1)C(Cl)(Cl)Cl (configuration not stated),inactive: -3.34%
4,O=[N+]([O-])c1ncn(CCn2ncnc2[N+](=O)[O-])n1,inactive: -1.74%
5,O=C(Nc1cc([As](=O)(O)O)ccc1O)c1ccccc1,inactive: 3.51%
6,CN(C)C(=O)OCCc1n(C)cc[n+]1C,inactive: -28.5%
7,CC(C)=N/N=C(\N)N[N+](=O)[O-],inactive: 0.651%
8,CC1CCN(C(=O)Oc2c(Cl)cc(Cl)c3cccnc23)CC1,inactive: 1.02%
9,C[N+]1=C2C=CC=CC=C2SC12C([N+](=O)[O-])=CC([N+](=O)[O-])=C[C-]2[N+](=O)[O-] (configuration not stated),inactive: -2.37%
10,Nc1ccc([As](=O)(O)c2ccc(N)cc2)cc1,inactive: -0.311%
11,CCN(/C(=N/P(=O)(N1CCOCC1)N1CCOCC1)N1CCOCC1)c1ccc(OC)cc1,inactive: -6.82%
12,O=[N+]([O-])c1cccc2n[nH]nc12,inactive: 1.61%
13,CC(=O)N1C2C3N(C(C)=O)C1C1N(C(C)=O)C(C(N1C(C)=O)N3C(C)=O)N2C(C)=O,inactive: 2.1%
14,CCc1nc2c(n1)c1c(non1O)c1c2no[n+]1[O-],inactive: 2.94%
15,O=[N+]([O-])c1cc([N+](=O)[O-])c(CCNc2ccccc2)c([N+](=O)[O-])c1,inactive: 4.83%
16,Cc1ccc(NP(=O)(Oc2ccccc2)Oc2ccccc2)nc1,inactive: 1.29%
17,COc1ccc(C2=NCC(CBr)S2)cc1 (configuration not stated),inactive: 1.76%
18,CC(C)CC(=O)NC(Sc1ccc(Cl)cc1)C(Cl)(Cl)Cl (configuration not stated),inactive: -2.71%
19,Nc1cc(N)c2nonc2c1[N+](=O)[O-],inactive: 1.23%
20,Cc1c2non([O-])c-2c(C)[n+](=O)[n+]1[O-],inactive: 2.76%
21,O=C(NC(Sc1ccncn1)C(Cl)(Cl)Cl)c1ccccc1 (configuration not stated),inactive: 1.4%
22,Oc1ccccc1CNc1ccccn1,inactive: -0.723%
23,Cc1ccc(OP(=O)(Nc2nccs2)Oc2ccc(C)cc2)cc1,inactive: 3.88%
24,COc1ccccc1OP(=O)(Nc1ccc(C)cn1)Oc1ccccc1OC,inactive: 2.13%
25,Clc1ccc(Cl)c(NC2=NCC(CBr)S2)c1 (configuration not stated),inactive: -1%
26,CN1CCCC(OC(=O)C(c2ccccc2)c2ccccc2)C1 (configuration not stated),inactive: 1.48%

row,Structure (SMILES),activity score (negative = inhibition)
1,NC(=O)c1cc([N+](=O)[O-])cc([N+](=O)[O-])c1N,inactive: -5.75%
2,Cc1ccc(N/C(=N/P(=O)(N2CCOCC2)N2CCOCC2)N2CCOCC2)cc1,inactive: 4.14%
3,CCN(N=Nc1nonc1N)c1nonc1N,inactive: -18.4%
4,Nc1cccc2ccc([As](=O)(O)O)cc12,inactive: -0.23%
5,O=[N+]([O-])c1cc([N+](=O)[O-])c(CCN2CCOCC2)c([N+](=O)[O-])c1,inactive: 3.27%
6,Cc1ccc(NP(=O)(Oc2ccccc2F)Oc2ccccc2F)nc1,inactive: 0.461%
7,CN(C(=O)Cc1ccc(Cl)c(Cl)c1)[C@H]1CCCC[C@@H]1N1CCCC1,inactive: -2.24%
8,CCOP(=O)(Nc1ccccc1)OCC,inactive: -0.242%
9,Cc1cc(SC(NC(=O)c2ccc(F)cc2)C(Cl)(Cl)Cl)ncn1 (configuration not stated),inactive: 7.01%
10,O=C(O)c1ccccc1[As](=O)(O)O,inactive: -0.46%
11,CC(=O)Nc1ccc([As](=O)(O)O)cc1,inactive: 0.924%
12,O=P(Nc1nc2ccc(Cl)cc2s1)(c1ccccc1)c1ccccc1,inactive: 0.631%
13,CN(C)C(=O)Oc1noc2ccccc12,inactive: -0.418%
14,Cc1ccccc1OP(=O)(Nc1ccccn1)Oc1ccccc1C,inactive: 0.801%
15,CC(=O)NC(SC(=S)N(CC(C)C)CC(C)C)C(Cl)(Cl)Cl (configuration not stated),inactive: 3.5%
16,Cc1ccc(OP(=O)(Nc2ccccn2)Oc2ccc(C)cc2)cc1,inactive: -0.99%
17,COC(=O)c1cc2c(s1)N=C(c1ccccc1)N(C)P2(=O)N1CCOCC1 (configuration not stated),inactive: 0.565%
18,CCC(=O)N1C2C3N(C(=O)CC)C1C1N(C(=O)CC)C(C(N1C(=O)CC)N3C(=O)CC)N2C(=O)CC,inactive: 4.34%
19,O=C(OC1CN2CCC1CC2)c1ccccc1 (configuration not stated),inactive: 1.55%
20,CCNC(=S)/N=C(\N)N[N+](=O)[O-],inactive: -0.356%
21,O=C(NC1CCS(=O)(=O)C1)NP(=S)(Oc1ccccc1)Oc1ccccc1 (configuration not stated),inactive: -0.959%
22,Cc1ccc(NP(=O)(Oc2cccc(C)c2)Oc2cccc(C)c2)nc1,inactive: 3.84%
23,CCOC(=O)NC(Sc1ccccc1)C(Cl)(Cl)Cl (configuration not stated),inactive: -1.63%
24,c1ccc(-c2nn[nH]n2)c(-c2nn[nH]n2)c1,inactive: 2.14%
25,CC(=O)Nc1ccc(Oc2c([N+](=O)[O-])cc([N+](=O)[O-])cc2[N+](=O)[O-])cc1,inactive: 3.91%
26,CC(=O)Nc1ccc([As](=O)(O)O)c(O)c1,inactive: 0.0465%

row,Structure (SMILES),activity score (negative = inhibition)
1,CC(=O)c1ccc(N2CC2c2ccncc2)cc1 (configuration not stated),inactive: 6.35%
2,C[C@@H]1C=CCP(=O)(Oc2ccccc2)O1 (some centres not stated),inactive: -0.857%
3,C[C@H]1OP(=O)(Oc2ccccc2)C[C@@H]2O[C@@H]21 (some centres not stated),inactive: 0.93%
4,CC(C)(C)C(=O)NC(Sc1ccccc1)C(Cl)(Cl)Cl (configuration not stated),inactive: 3.39%
5,CCOc1ccc(C2=NCC(CBr)S2)cc1 (configuration not stated),inactive: 0.793%
6,O=P1(Nc2nc3ccc(Cl)cc3s2)COc2ccccc2O1 (configuration not stated),inactive: 5.73%
7,c1nnnn1CCn1cnnn1,inactive: 1.23%
8,CC(C)C(=O)NC(Sc1ccccc1)C(Cl)(Cl)Cl (configuration not stated),inactive: -0.0191%
9,O=P(Nc1nccs1)(c1ccccc1)c1ccccc1,inactive: -2.31%
10,Nc1ccc([As](=O)(O)c2ccc([N+](=O)[O-])cc2)cc1,inactive: -0.68%
11,C(Cc1nn[nH]n1)Cc1nn[nH]n1,inactive: 1.91%
12,O=C(OC1CN2CCC1CC2)c1cccc(Cl)c1 (configuration not stated),inactive: -1.58%
13,O=[N+]([O-])c1ccc(O)c(/C=N/Nc2ccc([N+](=O)[O-])cc2[N+](=O)[O-])c1,inactive: 3.19%
14,CC(=O)NC(SC(=S)N(C)C)C(Cl)(Cl)Cl (configuration not stated),inactive: 2.33%
15,O=[N+]([O-])c1ncn(CCn2cnc([N+](=O)[O-])n2)n1,inactive: 0.048%
16,O=[As](O)(c1ccccc1)c1ccc(O)cc1,inactive: -0.888%
17,C[C@H]1OP(=O)(Oc2ccccc2)[C@H](O)[C@H](O)[C@H]1N=[N+]=[N-] (some centres not stated),inactive: -1.14%
18,O=P(Nc1nc2ccccc2s1)(c1ccccc1)c1ccccc1,inactive: 0.271%
19,O=P(Nc1ccccn1)(c1ccc(Br)cc1)c1ccc(Br)cc1,inactive: -7.2%
20,CN(C)C1(CNC(=O)c2ccc(Cl)c(S(N)(=O)=O)c2)CCCCC1,inactive: -2.24%
21,O=P1(Nc2ccc(Br)cn2)COc2ccccc2OC1,inactive: -2.32%
22,Cc1ccc(OCC(=O)OC2CN3CCC2CC3)cc1 (configuration not stated),inactive: -0.786%
23,O=[As](O)(c1cccs1)c1cccs1,inactive: -4.3%
24,Nc1cccc([As](=O)(O)c2ccccc2)c1,inactive: -0.644%
25,O=P1(Nc2ncccn2)COc2ccccc2OC1,inactive: 5.31%
26,O=C(/C=C/c1ccccc1)OC1CN2CCC1CC2 (configuration not stated),inactive: 1.36%

row,Structure (SMILES),activity score (negative = inhibition)
1,CN(C)C1(CNC(=O)c2ccc(S(C)(=O)=O)cc2)CCCCC1,inactive: -3.27%
2,CC1CCC(C(C)C)C(OP(=O)(Nc2ccccn2)c2ccccc2)C1 (configuration not stated),inactive: -0.802%
3,Cc1ccc(C(=O)OC2CN3CCC2CC3)cc1 (configuration not stated),inactive: 2.06%
4,Cc1nn(-c2ccccc2)c2c1P(=O)(N1CCOCC1)N(C)C(c1ccccc1)=N2 (configuration not stated),inactive: 0.202%
5,CC1(CBr)Cn2c(nc3ccccc3c2=O)S1 (configuration not stated),inactive: 3.04%
6,O=[As](O)(c1ccccc1Br)c1ccccc1Br,inactive: 0.184%
7,CC(C)/C=N\N=C(\N)N[N+](=O)[O-],inactive: 2.73%
8,CN(C(=O)Cc1ccc(Cl)c(Cl)c1)[C@@H]1CCCC[C@H]1N1CCCC1,inactive: 0.369%
9,COc1ccccc1CNC(=O)COC(=O)C(O)(c1ccccc1)c1ccccc1,inactive: 4.05%
10,CC(C)(C)C(=O)NC(Sc1ncccn1)C(Cl)(Cl)Cl (configuration not stated),inactive: 0.693%
11,Clc1n[nH]nc1-c1nn[nH][15n]1,inactive: 0.622%
12,CN(CCCl)Cc1cc(Cl)c(NC2=NCCN2)c(Cl)c1,inactive: -0.154%
13,CCOP(=O)(Nc1ccc(C)cn1)OCC,inactive: -3.04%
14,CCOP(=O)(NC(=NC(C)c1ccccc1)NC(C)c1ccccc1)OCC (configuration not stated),inactive: 3.48%
15,O=P1(Nc2ccccn2)COc2ccccc2OC1,inactive: 1.05%
16,CCC1=CC2Cc3nc4ccc(Cl)cc4c(N)c3C(C1)C2 (configuration not stated),inactive: -1.6%
17,CCOP(=O)(Nc1cccc2ccccc12)OCC,inactive: -0.815%
18,COc1cc(C2NCCC3(OCCO3)C2(C)C)cc(OC)c1OC (configuration not stated),inactive: 3.72%
19,CCCOP(=S)(Nc1nc(N)cc(=O)[nH]1)OCCC,inactive: 0.225%
20,Cc1ccc(NCCc2c([N+](=O)[O-])cc([N+](=O)[O-])cc2[N+](=O)[O-])cc1,inactive: 1.65%
21,Nc1cccc2c([As](=O)(O)O)cccc12,inactive: -1.08%
22,O=[As](O)(c1cccc(O)c1)c1cccc(O)c1,inactive: -1.63%
23,Cc1cccc(OCC(=O)OC2CN3CCC2CC3)c1 (configuration not stated),inactive: -2.15%
24,CS(=O)(=O)c1ccc(Cl)c(NC(=O)COC(=O)C(O)(c2ccccc2)c2ccccc2)c1,inactive: -1.76%
